{"source": "PubChem BioAssay AID1265", "about": "(The Scripps Research Institute Molecular Screening Center, 2008)", "note": "The list shows a part of the results, in another mix than the full data. Active and inactive are the calls of the source.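 Rule for the calls: active = inhibition above the hit cutoff computed for the primary STAT3 screen (cut at about 44% in these data); inactive = the rest.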"}
{"assay": "blockers of IL-6 STAT3 signaling – U3A cells, luciferase, luminescence, confirmation (AID 1265);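 note: 0% = IL-6 plus DMSO and 100% = IL-6 plus nifuroxazide control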", "settings": "IL-6 STAT3 luciferase reporter, at 5.7 µM, hits give high values, cell line lacks STAT1"}
{"molecule": "O=c1c2cc([N+](=O)[O-])ccc2[nH]c2c([N+](=O)[O-])cc([N+](=O)[O-])cc12", "inhibition": "inactive: 30.7%"}
